Values of other authors as cited in article PMC4361037 (Annals of neurology, 2014).

Tested on: HDAC3 versus HDAC1/2
Details: cited from earlier work

Question: Which “selectivity (HDAC1/2) over HDAC3” value does the source give for `Nc1ccc(-c2cccs2)cc1NC(=O)CCCCCCNC(=O)c1cccnc1` [HDACi 233, N-[2-amino-5-(2-thienyl)phenyl]-7-nicotinoylamino-heptanamide] here?
Answer: > 200 fold
